Publication PMC12836348, “Alanine Mutagenesis Identifies Specific Amino Acids of Nemertide Alpha‑1 Activity and Its Binding to Target Receptors” (Journal of Natural Products, 2025)

Tested on: Kv1.1
Assay: Ion channel panel, Kv1.1
Type: cell-based
Design: key: “+” means tested and produced effect; “–“ means tested but no effect
Conditions: S12A at 5 μM; Xenopus oocytes, n ≥ 3
From the text: To assess the concentration–response relationships, data were fitted with the Hill equation: y = 100/[1 + (EC50/[toxin])^ h ], where y is the amplitude of the toxin-induced effect (y = I 30 ms/I peak where I 30 ms is the current value at 30 ms in the presence of toxin and I peak is the peak current amplitude in control conditions), EC50 is the toxin concentration at half-maximal efficacy, [toxin] is the toxin concentration, and h is the Hill coefficient. Potassium and calcium currents were evoked by a 500 ms depolarization to the voltage corresponding to the maximal activation of the channels in control conditions from a holding potential of −90 mV. Elicited currents were sampled at 1 kHz and filtered at 0.5 kHz. […] ASIC1a currents were measured in ND96 solutions at a pH of 7.4 and 4.5, at a holding potential of −70 mV during 400 s, and the data were filtered at 20 Hz. EnaC currents were measured by clamping oocytes at a holding potential of −60 mV and perfusing with low- (1 mM) and high- (96 mM) sodium ND96. Opioid currents were measured by clamping the potential to −70 mV and changing the perfusion solution from ND96 to high-potassium (HK) solution composed of 96 mM KCl, 2 mM NaCl, 1 mM MgCl2, 1.8 mM CaCl2, and 5 mM HEPES, with a final pH of 7.5. […] TRPV1 and TRPA1 currents were continuously monitored in a perfusing ND96 solution, following a protocol at −90 mV for 400 s. […]

CC[C@H](C)[C@@H]1NC(=O)[C@@H](NC(=O)CN)CSSC[C@@H]2NC(=O)[C@@H]3CSSC[C@@H](C(=O)N[C@@H](CC(N)=O)C(=O)N4C[C@H](O)C[C@H]4C(=O)N4C[C@H](O)C[C@H]4C(=O)N[C@@H](CC(N)=O)C(=O)N[C@@H](CCC(N)=O)C(=O)O)NC(=O)[C@H](CCCCN)NC(=O)[C@H](Cc4ccccc4)NC(=O)[C@H](CC(N)=O)NC(=O)[C@H](Cc4c[nH]c5ccccc45)NC(=O)CNC(=O)[C@H](CSSC[C@H](NC(=O)[C@H](Cc4ccccc4)NC(=O)[C@H](CO)NC(=O)CNC(=O)[C@H]([C@@H](C)O)NC(=O)[C@H](C)NC1=O)C(=O)N[C@@H]([C@@H](C)O)C(=O)N[C@@H](CC(C)C)C(=O)N[C@@H](C)C(=O)N[C@@H](CCCCN)C(=O)NCC(=O)N3)NC(=O)[C@H](CC(N)=O)NC(=O)[C@H](CCCCN)NC(=O)[C@H]([C@@H](C)O)NC2=O [Peptide S12A]
effect on Kv1.1: –
